Laboratory results: publication PMC10967972, “Different Coactivator Recruitment to Human PPARα/δ/γ Ligand-Binding Domains by Eight PPAR Agonists to Treat Nonalcoholic Fatty Liver Disease” (Biomedicines, 2024)

Amino acid sequences for entries named in this document (tags omitted). Residues count along the entry.
UniProt P37231, 231-505: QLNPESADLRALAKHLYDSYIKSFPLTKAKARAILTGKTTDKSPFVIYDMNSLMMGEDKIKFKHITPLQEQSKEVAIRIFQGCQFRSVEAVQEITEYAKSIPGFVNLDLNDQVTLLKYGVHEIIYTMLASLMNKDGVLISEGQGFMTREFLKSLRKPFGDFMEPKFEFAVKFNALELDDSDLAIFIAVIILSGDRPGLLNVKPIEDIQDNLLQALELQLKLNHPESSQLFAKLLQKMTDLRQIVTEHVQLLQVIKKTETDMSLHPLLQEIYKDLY

Biological target: T1, human PPARγ-LBD (Homo sapiens, UniProt P37231)
T1 construct: PPARγ-LBD (AAs 203–477 in isoform 1); made in house
Assay: TR-FRET coactivator recruitment assay, PPARγ-LBD
Format: biochemical
Conditions: Buffer A

With GW1929 the EC50 (CBP peptide recruitment, read-out: PPARγ CBP EC50) was 48.8 nM, the EC50 (PGC1α peptide recruitment, read-out: PPARγ PGC1α EC50) was 75.5 nM and the EC50 (SRC1 peptide recruitment, read-out: PPARγ SRC1 EC50) was 91.1 nM. For the same substance, the EC50 (TRAP220 peptide recruitment, read-out: PPARγ TRAP220 EC50) was 50.3 nM and the EC50 (range over PGC1α, CBP, SRC1, TRAP220, read-out: EC50 values on the four coactivators, PPARγ) was 48.8 to 91.1 nM.

Where two headings read alike, the source gives them in different places.
